Data: patent publication US7511133B2 (dated 2009)

Amino acid sequences for entries named in this document (tags omitted).
UniProt P0DMS8, whole entry: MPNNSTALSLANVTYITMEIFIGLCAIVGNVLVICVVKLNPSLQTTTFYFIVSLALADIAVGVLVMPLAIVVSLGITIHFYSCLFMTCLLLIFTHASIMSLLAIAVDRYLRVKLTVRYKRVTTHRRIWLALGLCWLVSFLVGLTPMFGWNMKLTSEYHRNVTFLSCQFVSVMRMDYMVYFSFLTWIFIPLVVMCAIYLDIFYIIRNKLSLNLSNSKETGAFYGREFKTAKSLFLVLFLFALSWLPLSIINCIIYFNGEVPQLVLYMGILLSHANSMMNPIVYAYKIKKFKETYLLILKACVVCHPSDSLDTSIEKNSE
UniProt P30542, whole entry: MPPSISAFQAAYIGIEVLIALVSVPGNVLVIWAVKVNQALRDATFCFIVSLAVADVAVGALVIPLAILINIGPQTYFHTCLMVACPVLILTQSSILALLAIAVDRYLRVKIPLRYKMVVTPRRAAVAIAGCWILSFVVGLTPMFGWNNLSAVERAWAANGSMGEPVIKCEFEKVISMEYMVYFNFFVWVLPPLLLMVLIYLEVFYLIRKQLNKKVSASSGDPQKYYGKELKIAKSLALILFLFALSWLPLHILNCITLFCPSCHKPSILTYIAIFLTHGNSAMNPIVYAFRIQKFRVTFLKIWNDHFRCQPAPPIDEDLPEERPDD

Legend:
[1] = target: human A3 adenosine receptors (Homo sapiens, UniProt P0DMS8)
[2] = target: human A1 adenosine receptors (Homo sapiens, UniProt P30542); experiment: Displacement of [^3H]CHA binding, human A1 adenosine receptors in CHO cells (agonist radioligand)
human A3 receptors = human A3 receptors (Homo sapiens, UniProt P0DMS8); experiment: [^3H] MRE3008F20 binding to human A3 receptors expressed in CHO cells (antagonist radioligand)
human A1 receptors = human A1 receptors (Homo sapiens, UniProt P30542); experiment: [^3H] DPCPX binding to human A1 receptors expressed in CHO cells (antagonist radioligand)

Ki [1] [µM] | Ki [2] [µM] | Ki (human A3 receptors) [µM] | Ki (human A1 receptors) [µM] | SMILES
0.023 | – | 0.13 | – | CCNC(=O)[C@H]1O[C@@H](n2cnc3c(NC(=O)Nc4ccc(S(=O)(=O)NC5CCCCC5)cc4)ncnc32)[C@H](O)[C@@H]1O [Compound 94, 1-Deoxy-1-[6-[[[[4-[N-(cyclohexyl)aminosulfonyl]phenyl]-amino]carbonyl]amino]-9H-purin-9-yl]-N-ethyl-β-D-ribofuranuronamide]
– | 0.206 | – | > 1 | C=CCN(C)S(=O)(=O)c1ccc(NC(=O)Nc2ncnc3c2ncn3[C@@H]2O[C@H](C(=O)NCC)[C@@H](O)[C@H]2O)cc1 [Compound 96, 1-Deoxy-1-[6-[[[[4-[N-(allyl)-N-(methyl)amino-sulfonyl]phenyl]amino]carbonyl]amino]-9H-purin-9-yl]-N-ethyl-β-D-ribofuranuronamide]
– | 0.325 | – | – | CCNC(=O)[C@H]1O[C@@H](n2cnc3c(NC(=O)Nc4ccc(S(=O)(=O)N(C)C(C)C)cc4)ncnc32)C(O)C1O (stereo partly drawn) [Compound 97, 1-Deoxy-1-[6-[[[[4-[N-(1-methylethyl)-N-(methyl)-aminosulfonyl]phenyl]amino]carbo-nyl]amino]-9H-purin-9-yl]-N-ethyl-β-D-ribofuranuronamide]
0.012 | – | – | – | CCNC(=O)[C@H]1O[C@@H](n2cnc3c(NC(=O)Nc4ccc(S(=O)(=O)N(C)C)cc4)ncnc32)C(O)C1O (stereo partly drawn) [Compound 98, 1-Deoxy-1-[6-[[[[4-[N,N-(dimethyl)amino-sulfonyl]phenyl]amino]carbonyl]amino]-9H-purin-9-yl]-N-ethyl-β-D-ribofuranuronamide]
0.009 | 0.35 | – | – | CCNC(=O)[C@H]1O[C@@H](n2cnc3c(NC(=O)Nc4ccc(S(=O)(=O)N(CC)CC)cc4)ncnc32)[C@H](O)[C@@H]1O [Compound 100, 1-Deoxy-1-[6-[[[[4-[N,N-bis(ethyl)amino-sulfonyl]phenyl]amino]carbonyl]amino]-9H-purin-9-yl]-N-ethyl-β-D-ribofuranuronamide]

The next lines start with the molecule.

SMILES | Ki [1] [µM] | Ki [2] [µM] | Ki (human A3 receptors) [µM] | Ki (human A1 receptors) [µM]
CCNC(=O)[C@H]1O[C@@H](n2cnc3c(NC(=O)Nc4ccc(S(=O)(=O)N5CCCCC5)cc4)ncnc32)[C@H](O)[C@@H]1O [Compound 83, 1-Deoxy-1-[6-[[[[4-[(piperidin-1-yl)sulfonyl]phenyl]amino]carbonyl]amino]-9H-purin-9-yl]-N-ethyl-β-D-ribofuranuronamide] | 0.017 | 0.75 | 0.137 | > 1
CCNC(=O)[C@H]1O[C@@H](n2cnc3c(NC(=O)Nc4ccc(S(=O)(=O)NCc5ccccc5)cc4)ncnc32)[C@H](O)[C@@H]1O [Compound 86, 1-Deoxy-1-[6-[[[[4-[N-(benzyl)aminosulfonyl]phenyl]amino]-carbonyl]amino]-9H-purin-9-yl]-N-ethyl-β-D-ribofuranuronamide] | 0.024 | – | 0.303 | –
CCNC(=O)[C@H]1O[C@@H](n2cnc3c(NC(=O)Nc4ccc(S(=O)(=O)Nc5ccc(OC)cc5)cc4)ncnc32)[C@H](O)[C@@H]1O [Compound 88, 1-Deoxy-1-[6-[[[[4-[N-(4-methoxyphenyl)aminosulfonyl]phenyl]-amino]carbo-nyl]amino]-9H-purin-9-yl]-N-ethyl-β-D-ribofuranuronamide] | 0.023 | – | 0.573 | –
CCNC(=O)[C@H]1O[C@@H](n2cnc3c(NC(=O)Nc4ccc(S(=O)(=O)N5CCCC5)cc4)ncnc32)[C@H](O)[C@@H]1O [Compound 90, 1-Deoxy-1-[6-[[[[4-[(pyrrolidin-1-yl)sulfonyl]phenyl]amino]carbonyl]amino]-9H-purin-9-yl]-N-ethyl-β-D-ribofuranuronamide] | – | 0.7 | – | > 1
